# Laboratory results from patent US20250361281A1, “AMYLIN RECEPTOR (hAMY3R) AGONISTS WITH IMPROVED CHEMICAL STABILITY” (GUBRA A/S, priority 2022, published 2025).
# Sequences of proteins named here, by UniProt entry; tags and fusion partners are left off. Residues count along the entry.
# UniProt O60895, 43-175 partner: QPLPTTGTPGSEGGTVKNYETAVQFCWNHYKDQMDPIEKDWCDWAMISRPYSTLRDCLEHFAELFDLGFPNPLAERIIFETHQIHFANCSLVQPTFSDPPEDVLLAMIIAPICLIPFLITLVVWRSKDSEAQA
# UniProt Q16602, 23-461: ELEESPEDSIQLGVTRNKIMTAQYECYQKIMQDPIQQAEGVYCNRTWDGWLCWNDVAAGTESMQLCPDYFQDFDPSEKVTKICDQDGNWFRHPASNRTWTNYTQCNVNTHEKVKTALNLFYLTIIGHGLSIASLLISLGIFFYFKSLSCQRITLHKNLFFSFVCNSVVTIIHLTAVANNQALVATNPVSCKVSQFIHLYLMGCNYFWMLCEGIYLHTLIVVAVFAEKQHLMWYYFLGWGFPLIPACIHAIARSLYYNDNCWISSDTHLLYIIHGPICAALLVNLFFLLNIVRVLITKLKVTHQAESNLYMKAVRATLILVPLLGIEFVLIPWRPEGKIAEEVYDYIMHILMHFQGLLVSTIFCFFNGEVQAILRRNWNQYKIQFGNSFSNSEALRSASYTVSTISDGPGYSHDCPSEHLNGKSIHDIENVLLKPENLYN
# Biological target: T1, hAM1 receptor (Homo sapiens, UniProt O60895+Q16602)
# T1 construct: monoclonal sub-clone
# Experiment: cAMP assay for in vitro receptor activation, hAM1-R
# Type: cell-based
# Procedure: General Protocols for cAMP Assays for Measuring In Vitro Receptor Activation hAMY3-R:
# Cells stably overexpressing the hAM1 receptor were obtained from Ogeda (now Astellas Pharma), sub-cloned and a monoclonal cell-line with an appropriate assay-window was expanded, aliquoted and frozen. An aliquot was thawed and plated in DPBS with 0.05% casein and 0.5 mM IBMX as 8000 cells/well in a 384-well format.
compound,measurement,value
CC[C@H](C)[C@H](NC(=O)[C@H](C)NC(=O)CNC(=O)[C@H](Cc1ccccc1)NC(=O)[C@H](CC(N)=O)NC(=O)[C@H](CC(N)=O)NC(=O)[C@H](CO)NC(=O)[C@H](CO)NC(=O)[C@H](Cc1c[nH]cn1)NC(=O)[C@@H](NC(=O)[C@H](CC(C)C)NC(=O)[C@H](Cc1ccccc1)NC(=O)[C@H](CC(N)=O)NC(=O)[C@H](C)NC(=O)[C@H](CC(C)C)NC(=O)[C@H](CCCNC(=N)N)NC(=O)[C@H](CCC(N)=O)NC(=O)[C@@H](NC(=O)[C@H](C)NC(=O)[C@@H]1CSSC[C@H](NC(=O)[C@@H](N)CCCCN)C(=O)N[C@@H](CC(N)=O)C(=O)N[C@@H]([C@@H](C)O)C(=O)N[C@@H](C)C(=O)N[C@@H]([C@@H](C)O)C(=O)N1)[C@@H](C)O)C(C)C)C(=O)N[C@@H](CC(C)C)C(=O)N[C@@H](CO)C(=O)N[C@@H](CO)C(=O)N[C@H](C(=O)N[C@@H](CC(N)=O)C(=O)N[C@H](C(=O)NCC(=O)N[C@@H](CO)C(=O)N[C@@H](CC(N)=O)C(=O)N[C@H](C(=O)N[C@@H](Cc1ccc(O)cc1)C(N)=O)[C@@H](C)O)C(C)C)[C@@H](C)O [SEQ ID NO: 2],activity on AM1R,inactive
